Only a part is listed here, and it is no random draw. The source made the active and inactive calls. Calls come from the whole dose curve; as a rule, active = well fitted curve in the direction sought with a large enough effect; inactive = no such curve, though single readings can be large or run the other way.

The chains behind the UniProt entries cited, without tags or fusion partners. Where a name states a change or a piece, a line headed by the entry shows the natural chain unless it says otherwise.
UniProt P04062: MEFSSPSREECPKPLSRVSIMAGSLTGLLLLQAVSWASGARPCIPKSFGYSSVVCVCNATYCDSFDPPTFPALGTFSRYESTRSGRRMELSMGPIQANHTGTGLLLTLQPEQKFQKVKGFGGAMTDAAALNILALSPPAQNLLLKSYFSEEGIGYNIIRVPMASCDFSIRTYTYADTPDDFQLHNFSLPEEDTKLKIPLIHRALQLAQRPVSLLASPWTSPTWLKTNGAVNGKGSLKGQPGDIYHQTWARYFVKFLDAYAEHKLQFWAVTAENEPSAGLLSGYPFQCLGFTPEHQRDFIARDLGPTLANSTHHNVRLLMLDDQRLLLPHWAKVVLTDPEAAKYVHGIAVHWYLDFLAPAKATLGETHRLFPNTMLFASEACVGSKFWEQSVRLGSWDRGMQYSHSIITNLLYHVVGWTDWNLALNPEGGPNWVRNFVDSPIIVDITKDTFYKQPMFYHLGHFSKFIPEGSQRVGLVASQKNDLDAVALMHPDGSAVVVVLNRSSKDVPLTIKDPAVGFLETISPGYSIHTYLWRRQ

The target of this test is Lysosomal acid glucosylceramidase (Homo sapiens) (UniProt P04062). In words: qHTS Assay for Inhibitors and Activators of N370S glucocerebrosidase as a Potential Chaperone Treatment of Gaucher Disease: Chaperone Activity in Non-Gauche Fibroblasts After Multi-day Incubation with Compound. Conditions: Wild-type fibroblasts, GC immunofluorescence, 5-day incubation. An excerpt: NIH Chemical Genomics Center [NCGC] NIH Molecular Libraries Probe Production Centers Network [MLPCN] MLPCN Grant: MH086442-01 Assay Submitter (PI): Wei Zheng Glucocerebrosidase (GC) catalyzes the hydrolysis of beta-glucocerebroside to glucose and ceramide in lysosomes. Mutations in the glucocerebrosidase gene result in Gaucher disease, an autosomal recessive lysosomal storage disorder. Many of the mutations encountered in patients with Gaucher disease are missense alterations that may cause misfolding, decreased stability and/or mistrafficking of this lysosomal protein. […] These inhibitors include iminosugar analogs and three non-iminosugar inhibitors identified from a previous HTS of 62,000 compounds with the wild type recombinant enzyme. However, the enhancement of enzyme activity by the chaperone action of an enzyme inhibitor must be balanced against the direct inhibition of the enzyme. An enzyme activator could also function as a chaperone by binding to the enzyme and helping to correct its misfolding and mistrafficking. […] This assay attempts to quantitate translocated glucocerebrosidase protein in patient-derived fibroblasts following extended compound incubation. […]
NCGC Assay Protocol Summary: 1. […] Visualized using a fluorescence microscope and the intensity of fluorescence in the selected areas were calculated. […]
On the technique in general: In qHTS, concentration-response curves come from the screen itself.
Regarding `Cc1cc(N2CCOCC2)nc2ccc(NC(=O)C3CCCCC3)cc12`, the Potency was active: 31.6 µM.

The record behind these values is PubChem BioAssay AID2589 (National Center for Advancing Translational Sciences (NCATS), 2010).
